Results on one compound are retold here after US20050042716A1, “Allergen inactivating method, allergen inactivating filter, air treating apparatus, virus inactivating agent, virus inactivating method, virus inactivating filter, air conditoning unit and air conditioner” (priority 2003, published 2005).

Sequences of proteins named here, by UniProt entry; tags and fusion partners are left off. Residues count along the entry.
UniProt P43212, 46-433: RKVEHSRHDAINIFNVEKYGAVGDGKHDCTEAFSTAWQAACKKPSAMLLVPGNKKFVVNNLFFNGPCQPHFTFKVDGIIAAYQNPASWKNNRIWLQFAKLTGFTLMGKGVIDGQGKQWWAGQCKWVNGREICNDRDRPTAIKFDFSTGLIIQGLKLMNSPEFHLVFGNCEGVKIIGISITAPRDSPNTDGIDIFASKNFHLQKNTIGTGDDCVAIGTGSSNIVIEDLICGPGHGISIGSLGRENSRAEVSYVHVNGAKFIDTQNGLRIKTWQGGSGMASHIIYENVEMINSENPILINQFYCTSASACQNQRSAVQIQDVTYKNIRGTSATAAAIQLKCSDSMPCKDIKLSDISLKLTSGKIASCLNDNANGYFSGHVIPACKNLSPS

Experiment [1] addresses cedar antigen Cryj-1 (Cryptomeria japonica, UniProt P18632). Put plainly: Electrophoresis of treated cedar antigen Cryj-1. Format: biochemical. The following applies: 10 μL 5 N sodium hydroxide per 10 μL Cj-1 solution, 40° C., 10 minutes. Here is the method: (§1) Cedar antigens Cryj-1 (abbreviated as Cj-1 hereinafter) and Cryj-2 (abbreviated as Cj-2 hereinafter) were manufactured by Hayashibara Biochemical laboratories, Inc., and was used in a concentration of 100 μg/mL.
NuPage™ LDS sample buffer, NuPage™ sample reducing agent, and NuPage™ sample antioxidant, each manufactured by Invitrogen Co, were appropriately added according to the prescription of the manufacturer to prepare electrophoresis sample 7.
The electrophoresis samples 6 and 7 prepared by the methods in (1) and (2), respectively, were analyzed by electrophoresis. NuPage™ MOPS buffer kit for Bis-tris gel was used as an electrophoresis buffer solution, and 15 μL each of samples 6 and 7 prepared above were added in each lane. The protein was stained after electrophoresis using simply Blue™ SafeStain manufactured by Invitrogen Co. The gel was decolorized according to the prescription of the manufacturer.
Added in a 1.5 mL volume disposable tube were 10 μL of the Cj-1 solution and 10 μL of 5 N HCL solution, followed by incubating at 60° C. for 60 minutes. […]
The electrophoresis samples 12 and 13 prepared by the methods in (1) and (2), respectively, were analyzed by electrophoresis. […]
The electrophoresis samples 12 and 17 prepared by the methods in (1) and (2), respectively, were analyzed by electrophoresis. […]

The target of experiment [2] is cedar antigen Cryj-2 (Cryptomeria japonica, UniProt P43212). Put plainly: Electrophoresis of treated cedar antigen Cryj-2. Format: biochemical. The following applies: 10 μL 5 N sodium hydroxide per 10 μL Cj-2 solution, 40° C., 10 minutes. Here is the method:
as §1
Added in a 1.5 mL volume disposable tube were 22.5 μL of the Cj-2 solution and 2 μL of the pfu splution, and the solution was heated at 80° C. for 20 minutes, followed by adding 0.5 μL of the PMSF solution (final concentration of PMSF was 4 mM). NuPage™ LDS sample buffer, NuPage™ sample reducing agent, and NuPage™ sample antioxidant, each manufactured by Invitrogen Co, were appropriately added according to the prescription of the manufacturer to prepare electrophoresis sample 9.
The electrophoresis samples 8 and 9 prepared by the methods in (1) and (2), respectively, were analyzed by electrophoresis. NuPage™ MOPS buffer kit for Bis-tris gel was used as an electrophoresis buffer solution, and 15 μL each of samples 8 and 9 prepared above were added in each lane. […]
The electrophoresis samples 14 and 15 prepared by the methods in (1) and (2), respectively, were analyzed by electrophoresis. […]
The electrophoresis samples 14 and 18 prepared by the methods in (1) and (2), respectively, were analyzed by electrophoresis. […]

The target of experiment [3] is Cj-1 allergen (Cryptomeria japonica, UniProt P18632). Kind of experiment: Electrophoresis and Western blotting with Cj-1 antibody. The following applies: 5 N sodium hydroxide, 40° C., 10 minutes. Format: biochemical, cedar. The method, then:
Added in a 1.5 mL volume disposable tube were 22.5 μL of the cedar preparation and 2 μL of the pfu solution, and the solution was heated at 80° C. for 20 minutes, followed by adding 0.5 μL of the PMSF solution (final concentration of PMSF was 4 mM). NuPage™ LDS sample buffer, NuPage™ sample reducing agent, and NuPage™ sample antioxidant, each manufactured by Invitrogen Co, were appropriately added according to the prescription of the manufacturer to prepare electrophoresis sample 4.
Added in a 1.5 mL volume disposable tube were 27.0 μL of the cedar preparation and 3 μL (0.2 g/mL) of edible purified papain (manufactured by Nagase Chemtex Co.; abbreviated as papain hereinafter), and the solution was heated at 40° C. for 15 minutes, followed by adding 3 μL of an inhibitor cocktail solution. […]
The electrophoresis samples 1, 4 and 5 prepared by the methods in (1) to (3), respectively, were analyzed by electrophoresis. […]
The electrophoresis samples 6 and 7 prepared by the methods in (1) and (2), respectively, were analyzed by electrophoresis. […]
The electrophoresis samples 10, 11 and 16 prepared by the methods in (1), (2) and (3), respectively, were analyzed by electrophoresis.

Experiment [4] has as its system cedar extract. Kind of experiment: Electrophoresis of treated cedar extract (protein staining). Format: biochemical. The following applies: 10 μL 5 N sodium hydroxide per 10 μL cedar preparation, 40° C., 10 minutes.

The structures appear in SMILES notation.

As to `[Na+].[OH-]` [alkali, sodium hydroxide], in experiment [1], the “denaturation of Cj-1 protein (bands)” value is given as “most of the cedar antigen Cj-1 protein was denatured”. Further, the “denaturation of Cj-2 protein (bands)” value in experiment [2] was “most of the cedar antigen Cj-2 protein was denatured”. Also, the “denaturation of Cj-1 protein (Western band)” value in experiment [3] (Cj-1 solution) and in experiment [3] (cedar extract) was “most of the cedar antigen Cj-1 protein was denatured” throughout. In addition, the “denaturation of cedar proteins (bands)” value in experiment [4] is listed as “most of the protein derived from the cedar was denatured”.
